# Reference: ChEMBL document CHEMBL3259781 (J Med Chem, 2014)
# Molecular target: Adenosine receptor A2a (Homo sapiens, UniProt P29274)
structure (smiles),measurement,value
Nc1nnc(-c2ccccc2)c(-c2ccccc2)n1,Ki,115 nM
